For this assay, the target named is C-C chemokine receptor type 2 (Homo sapiens, UniProt P41597). The assay can be described thus: Antagonist activity at CCR2 (unknown origin).

Chains of the proteins cited; added tags and fusions are not shown. Lines headed by an entry give the natural chain unless they say otherwise; changes in a name come on top.
UniProt P41597: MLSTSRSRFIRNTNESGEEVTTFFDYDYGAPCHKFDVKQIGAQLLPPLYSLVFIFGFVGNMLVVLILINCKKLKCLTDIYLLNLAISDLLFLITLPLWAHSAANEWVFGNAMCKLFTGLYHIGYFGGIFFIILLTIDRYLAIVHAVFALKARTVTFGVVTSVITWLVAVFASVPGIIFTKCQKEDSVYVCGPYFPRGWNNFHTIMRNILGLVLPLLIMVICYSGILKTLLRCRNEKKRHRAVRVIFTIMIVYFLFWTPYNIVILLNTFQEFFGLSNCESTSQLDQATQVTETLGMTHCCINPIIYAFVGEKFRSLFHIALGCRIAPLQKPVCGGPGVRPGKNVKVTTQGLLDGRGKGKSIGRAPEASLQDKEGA

A word on the IC50: it is the concentration that inhibits the measured activity by half. Higher therefore signals a need for much substance. Take `CC(=O)N[C@@H]1C[C@H](N(C)C(C)C)CC[C@@H]1N1CC[C@H](Nc2ncnc3ccc(C(F)(F)F)cc23)C1=O`: the IC50 came to 1.4 nM.
